This is an account of results in publication PMC4038024 (Clinical pharmacology and therapeutics, 2012).

For this series the following is noted: blood; after oral tacrolimus.

With 12-hydroxy tacrolimus [12-HT], the “mean AUCmetabolite/AUCparent ratio, fold higher in CYP3A5 expressors than nonexpressors” value was found to be 2.7 fold.
